## scFv variants of Ab-95 (light chain) against a SARS-CoV-2 spike peptide

The target is the same throughout: PDVDLGDISGINAS, from the HR2 region of SARS-CoV-2 spike.

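The starting antibody came from a phage panning campaign against this peptide. The library (AAYL52) carries one to three amino acid substitutions per variant, with no insertions or deletions. The assay is AlphaSeq: two haploid yeast populations carry antibody and antigen on their surface. Binding brings cells together so that they mate, and sequencing counts the barcode pairs among the diploids. Read counts were normalised to the haploid input and turned into Kd by a linear fit to BCL2-family pairs of known affinity, for each replicate. The assay was run in three technical replicates.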

Each scFv is VH, a 15-residue (Gly4Ser)3 linker, VL, as in the parent Ab-95, and differs from it in the CDRs of the light chain only.
VH: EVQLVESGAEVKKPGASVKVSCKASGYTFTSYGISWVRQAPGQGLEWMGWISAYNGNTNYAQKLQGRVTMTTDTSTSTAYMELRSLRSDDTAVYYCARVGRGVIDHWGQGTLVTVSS
VL: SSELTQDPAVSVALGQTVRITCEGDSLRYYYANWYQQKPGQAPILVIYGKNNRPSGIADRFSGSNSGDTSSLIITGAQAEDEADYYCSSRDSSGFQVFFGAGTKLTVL

Each variant is given by its three light chain CDRs, as the data file delimits them; those of the parent are EGDSLRYYYAN, GKNNRPS, SSRDSSGFQVF. This list gathers variants with a substitution at D91 (VL, numbered from residue 1). Values are apparent Kd, the geometric mean of the replicates that gave a signal; lower means stronger binding. "nd" means that the variant was in the library but no mating with the target was seen in any replicate; the authors take this as a sign of poor binding, and no number exists. Empty control strains, which show no peptide, gave a signal in 28% of pairings with library AAYL52; the median was 8.2 µM and 95% of these signals were weaker than 800 nM. No background was subtracted.

For ESDSLRYYYAN, KKNNRPS, SSRYSSGFQVF, the assay gave 23 µM (1 of 3 replicates).
For EGDSLRYYYAN, GDNNRPS, SSRESSGFPVF, the assay gave 340 nM (3 of 3 replicates).
For EGDNLRSYYAN, GKNNRPS, SSRTSSGFQVF, the assay gave 36 µM (2 of 3 replicates).
For EKDSLGYYYAN, GKNNRPS, SSRPSSGFQVF, the assay gave 950 nM (3 of 3 replicates).
For EGDSLRYYYAN, GKNNRPS, SSRTSSGFQVW, the assay gave 860 nM (3 of 3 replicates).
For EGDSLRYYYAA, GKNNRPS, SSRPSTGFQVF, the assay gave 5.7 µM (3 of 3 replicates).
For EGDSLDYYYAN, KKNNRPS, SSRSSSGFQVF, the assay gave 1.5 µM (3 of 3 replicates).
For EGDSLNYYYLN, GKNNRPS, SSRSSSGFQVF, the assay gave 190 nM (3 of 3 replicates).
For EGDSLRYYYAN, GKNNRPS, SFRESSGFQGF, the assay gave 1.5 µM (3 of 3 replicates).
For EGDSLRYYYAN, GKNNRPV, SSRYDSGFQVF, the assay gave 96 nM (3 of 3 replicates).
For EGDSLRYYYAN, GKANRPI, SSRKSSGFQVF, the assay gave 460 nM (3 of 3 replicates).
For EGDSLRYYCAN, GKNNRPS, SSRLSSGFQVF, the assay gave 13 µM (2 of 3 replicates).
For EGDSLRYYYAN, GKNNRPS, SQRKSSNFQVF, the assay gave 4.5 µM (3 of 3 replicates).
For EGDSLRYYYAN, GKNNCPS, SSRRSSMFQVF, the assay gave 1.9 µM (1 of 3 replicates).
For EGDSLRYYYAN, GKNNRPS, CSRECSGFQVF, the assay gave 830 nM (3 of 3 replicates).
For EGDSLRYYYYN, GKNSRPS, SSRVSSGFQVF, the assay gave 60 µM (2 of 3 replicates).
For EADSLRYYYAN, GKNNRPS, SSGTSSGFQVF, the assay gave 64 µM (2 of 3 replicates).
For EGDSLRYYYAN, GKNNRPS, SSRKSHGFQVF, the assay gave 440 nM (3 of 3 replicates).
For EGDSLRYYYHN, GKYNRPS, SSRGSSGFQVF, the assay gave nd (0 of 3 replicates).
For EGDDLRYYYAN, GKNNRPS, SSRMSSGFQAF, the assay gave 450 nM (3 of 3 replicates).
For EGDSLRYYYAN, QKNNRPA, SSRYSSGFQVF, the assay gave 3.4 µM (1 of 3 replicates).
For EGDSSRYYYAN, GKNNRQS, SSRYSSGFQVF, the assay gave nd (0 of 3 replicates).
For EGDSLRYYATN, GKNNRPS, SSRESSGFQVF, the assay gave 2.2 µM (1 of 3 replicates).
For EEDSLRYYYAN, GTNNRPS, SSRCSSGFQVF, the assay gave 63 µM (2 of 3 replicates).
For GRDSLRYYYAN, GKNNRPS, SSRPSSGFQVF, the assay gave 33 µM (1 of 3 replicates).
For EGDSLRYYYAN, GKNNRPS, SSRQSSGFQCF, the assay gave 5.3 µM (1 of 3 replicates).
For EGDSLRTYYAN, WKNNRPS, SSRHSSGFQVF, the assay gave 5.9 µM (1 of 3 replicates).
For EGDSLRYSYAN, GKNNRPS, SSRYSSGFQVF, the assay gave 2.9 µM (3 of 3 replicates).
For EGDSLRYYYAN, GKNNRPM, SSRLSSGFQVT, the assay gave 85 µM (2 of 3 replicates).
For NGDSLRYYYEN, GKNNRPS, SSRVSSGFQVF, the assay gave 18 µM (3 of 3 replicates).
For EGDSLRYYYAN, GKFNRPS, SSRISVGFQVF, the assay gave 1.5 µM (2 of 3 replicates).
For EGDSLRNYYAN, GKNNRKS, SSRKSSGFQVF, the assay gave 5.0 µM (1 of 3 replicates).
For EGDSLEYYYAN, GKNNRKS, SSRYSSGFQVF, the assay gave nd (0 of 3 replicates).
For EGDSLRYYYAN, GKNNRPS, SSRSSSGFQVF, the assay gave 220 nM (3 of 3 replicates).
For EGDSLRYYYAN, GKNNRCS, SSVHSSGFQVF, the assay gave 12 µM (1 of 3 replicates).
For EGDSLRYYYAN, GKFNRPS, CSRFSSGFQVF, the assay gave 5.9 µM (2 of 3 replicates).
For EGDSSRYYYAN, GKNNRPS, SSRFSSGFQVG, the assay gave nd (0 of 3 replicates).
For EGDSDRYYYVN, GKNNRPS, SSRCSSGFQVF, the assay gave 1.6 µM (2 of 3 replicates).
For EGDSLRYYYAN, GKPNRPS, SSSSSSGFQVF, the assay gave 18 µM (2 of 3 replicates).
For EGDILRYYYAN, GKNNRPS, SSRRSSGFQIF, the assay gave 1.8 µM (1 of 3 replicates).
For EGDSKRYYYAN, GKNNRPS, SSRWSSGFQVF, the assay gave 140 nM (3 of 3 replicates).

Picked from the list: the 2 lowest averages where every replicate gave a value.

CDR-L1	CDR-L2	CDR-L3	Kd	seen in
EGDSLRYYYAN	GKNNRPV	SSRYDSGFQVF	96 nM	3/3
EGDSKRYYYAN	GKNNRPS	SSRWSSGFQVF	140 nM	3/3

Parent in this assay: reference entry 200 nM, copy in this library 180 nM.

Values reported by Engelhart et al. 2022, doi:10.1038/s41597-022-01779-4 (FLAb copy).